The values that follow are results of earlier work, collected in publication PMC8688301 (Environment international, 2021).

For the data set the following is noted: animal studies; ref Mörck et al., 2003; cited from earlier work.

Regarding `Brc1c(Br)c(Br)c(CCc2c(Br)c(Br)c(Br)c(Br)c2Br)c(Br)c1Br` [DBDPE, decabromodiphenyl ethane], the absorbed fraction is reported as 10%.
